Molecular target: human cardiac Na channel (hH1, or SCN5A) (Homo sapiens, UniProt Q14524)
Assay: Whole-cell Na current recording, wild-type hH1 expressed in HEK-293 cells
Conditions: for P500/P1 (use-dependence): 5 Hz, 500 pulses

The chains behind the UniProt entries cited, without tags or fusion partners.
UniProt Q14524, whole entry, looked up: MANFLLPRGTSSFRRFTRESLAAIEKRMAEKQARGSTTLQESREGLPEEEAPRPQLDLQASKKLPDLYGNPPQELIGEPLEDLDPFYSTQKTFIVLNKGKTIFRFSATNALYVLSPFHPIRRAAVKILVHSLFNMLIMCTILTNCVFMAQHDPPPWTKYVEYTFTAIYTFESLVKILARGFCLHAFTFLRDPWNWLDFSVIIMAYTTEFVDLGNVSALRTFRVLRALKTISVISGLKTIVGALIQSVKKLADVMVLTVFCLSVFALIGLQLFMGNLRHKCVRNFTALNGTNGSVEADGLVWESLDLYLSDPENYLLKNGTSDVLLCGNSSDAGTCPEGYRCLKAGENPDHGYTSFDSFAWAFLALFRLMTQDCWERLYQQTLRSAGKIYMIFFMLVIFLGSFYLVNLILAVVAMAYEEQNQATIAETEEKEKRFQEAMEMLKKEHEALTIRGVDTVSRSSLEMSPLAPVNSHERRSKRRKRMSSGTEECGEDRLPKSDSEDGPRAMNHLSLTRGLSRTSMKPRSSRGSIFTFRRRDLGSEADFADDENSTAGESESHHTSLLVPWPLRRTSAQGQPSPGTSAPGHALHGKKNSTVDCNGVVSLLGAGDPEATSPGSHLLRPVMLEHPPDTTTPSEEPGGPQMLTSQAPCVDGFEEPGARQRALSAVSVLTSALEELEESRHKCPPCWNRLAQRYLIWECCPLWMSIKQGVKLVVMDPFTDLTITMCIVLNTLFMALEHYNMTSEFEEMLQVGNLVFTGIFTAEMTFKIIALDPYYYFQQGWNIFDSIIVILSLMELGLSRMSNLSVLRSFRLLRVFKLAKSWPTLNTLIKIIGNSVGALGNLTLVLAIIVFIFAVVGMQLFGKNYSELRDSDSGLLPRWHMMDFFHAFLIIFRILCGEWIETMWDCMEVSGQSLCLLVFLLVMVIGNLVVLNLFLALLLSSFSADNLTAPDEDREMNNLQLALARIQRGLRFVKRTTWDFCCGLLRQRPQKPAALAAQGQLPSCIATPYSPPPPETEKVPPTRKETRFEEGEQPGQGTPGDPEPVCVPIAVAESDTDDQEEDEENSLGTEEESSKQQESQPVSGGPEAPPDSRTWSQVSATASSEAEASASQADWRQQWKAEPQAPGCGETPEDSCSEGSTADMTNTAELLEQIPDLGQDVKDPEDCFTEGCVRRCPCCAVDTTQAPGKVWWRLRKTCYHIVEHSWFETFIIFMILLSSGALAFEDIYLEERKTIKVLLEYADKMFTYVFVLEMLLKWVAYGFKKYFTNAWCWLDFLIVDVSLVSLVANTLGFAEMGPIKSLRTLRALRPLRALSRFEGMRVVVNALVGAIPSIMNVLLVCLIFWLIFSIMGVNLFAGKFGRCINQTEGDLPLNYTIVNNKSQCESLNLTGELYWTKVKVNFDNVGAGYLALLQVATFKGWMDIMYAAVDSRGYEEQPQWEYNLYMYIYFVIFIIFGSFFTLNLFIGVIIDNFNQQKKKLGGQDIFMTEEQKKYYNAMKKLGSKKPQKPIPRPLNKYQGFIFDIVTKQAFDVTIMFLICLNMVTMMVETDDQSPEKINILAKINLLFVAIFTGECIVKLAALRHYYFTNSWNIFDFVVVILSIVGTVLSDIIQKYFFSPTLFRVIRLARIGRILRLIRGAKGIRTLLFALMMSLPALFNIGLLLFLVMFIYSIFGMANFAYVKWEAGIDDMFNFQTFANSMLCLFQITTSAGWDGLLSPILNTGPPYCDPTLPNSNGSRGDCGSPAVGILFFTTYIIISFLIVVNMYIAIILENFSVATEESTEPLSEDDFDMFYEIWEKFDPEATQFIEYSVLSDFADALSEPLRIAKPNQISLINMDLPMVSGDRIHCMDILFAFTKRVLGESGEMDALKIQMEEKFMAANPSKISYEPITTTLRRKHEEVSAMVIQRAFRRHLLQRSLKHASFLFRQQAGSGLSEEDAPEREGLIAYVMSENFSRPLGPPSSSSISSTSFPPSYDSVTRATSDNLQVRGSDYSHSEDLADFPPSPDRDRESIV

CC(C)(C)OO [t-BHP, tert-butyl hydroperoxide]
INa decay: no effect on INa decay | V1/2 voltage-dependence of activation: 42.4±1.5 mV | P500/P1 (use-dependence) (alone, flecainide 1 μM, IsoK 10 μM): 0.95±0.04 | P500/P1 (use-dependence) (in the presence of flecainide 1 μM): 0.72±0.05 | hyperpolarization of V1/2 (30 mins preincubation): 7 mV | V1/2 voltage-dependence of inactivation (availability) (HEK-293, t-BHP 1 mM, Iso-K 10 μM, flecainide 1 μM): −93.9±1.9 mV | activation of sodium channels (over a range of membrane potentials): no effect on the activation
